Data taken from paper PMC4620744 (Molecular cell, 2015).

Biological target: yeast H3-H4 (yeast)
Experiment: native gel or EMSA

- binding result: binds
B1: full-length FACT (Spt16-Pob3 heterodimer) (complex, S. cerevisiae)
chain 1: MEELNIDFDVFKKRIELLYSKYNEFEGSPNSLLFVLGSSNAENPYQKTTILHNWLLSYEFPATLIALVPGKVIIITSSAKAKHLQKAIDLFKDPESKITLELWQRNNKEPELNKKLFDDVIALINSAGKTVGIPEKDSYQGKFMTEWNPVWEAAVKENEFNVIDISLGLSKVWEVKDVNEQAFLSVSSKGSDKFMDLLSNEMVRAVDEELKITNAKLSDKIENKIDDVKFLKQLSPDLSALCPPNYKFNFDLLDWTYSPIIQSGKKFDLRVSARSTNDQLYGNGCILASCGIRYNNYCSNITRTFLIDPSEEMANNYDFLLTLQKEIVTNILKPGRTPKEVYESVIEYIEKTKPELVPNFTKNIGSLIGLEFRDSNFILNVKNDYRKIQRGDCFNISFGFNNLKDSQSANNYALQLADTVQIPLDETEPPRFLTNYTKAKSQISFYFNNEEEDNNKKKSSPATKVPSKPDRNSKILRTKLRGEARGGAEDAQKEQIRKENQKKLHEKLEKNGLLRFSAADANGPDSEPRQYFKKYESYVRDSQLPTNIRDLRIHVDWKSQTIILPIYGRPVPFHINSYKNGSKNEEGEYTYLRLNFNSPGSSGGISKKVEELPYEESADNQFVRSITLRSKDGDRMSETFKQIADLKKEATKREQERKALADVVQQDKLIENKTGRTKRLDQIFVRPNPDTKRVPSTVFIHENGIRFQSPLRTDSRIDILFSNIKNLIFQSCKGELIVVIHIHLKNPILMGKKKIQDVQFYREASDMSVDETGGGRRGQSRFRRYGDEDELEQEQEERRKRAALDKEFKYFADAIAEASNGLLTVENTFRDLGFQGVPNRSAVFCMPTTDCLVQLIEPPFLVINLEEVEICILERVQFGLKNFDMVFVYKDFNKPVTHINTVPIESLDFLKQWLTDMDIPYTVSTINLNWATIMKSLQDDPYQFFLDGGWNFLATGSDDEASDESEEEVSEYEASEDDVSDESAFSEDEEGSEVDDDISGDESEDYTGDESEEGEDWDELEKKAARADRGANFRD
chain 2: MSTDFDRIYLNQSKFSGRFRIADSGLGWKISTSGGSAANQARKPFLLPATELSTVQWSRGCRGYDLKINTKNQGVIQLDGFSQDDYNLIKNDFHRRFNIQVEQREHSLRGWNWGKTDLARNEMVFALNGKPTFEIPYARINNTNLTSKNEVGIEFNIQDEEYQPAGDELVEMRFYIPGVIQTNVDENMTKKEESSNEVVPKKEDGAEGEDVQMAVEEKSMAEAFYEELKEKADIGEVAGDAIVSFQDVFFTTPRGRYDIDIYKNSIRLRGKTYEYKLQHRQIQRIVSLPKADDIHHLLVLAIEPPLRQGQTTYPFLVLQFQKDEETEVQLNLEDEDYEENYKDKLKKQYDAKTHIVLSHVLKGLTDRRVIVPGEYKSKYDQCAVSCSFKANEGYLYPLDNAFFFLTKPTLYIPFSDVSMVNISRAGQTSTSSRTFDLEVVLRSNRGSTTFANISKEEQQLLEQFLKSKNLRVKNEDREVQERLQTALGSDSDEEDINMGSAGEDDESVDEDFQVSSDNDADEVAEEFDSDAALSDAEGGSDEERPSKKPKVE
